The subject of data set [1] is human lung cancer SPC-A4 xenografts. Briefly: Human lung cancer SPC-A4 xenografts in nude mice (Example 4). The format is in vivo. On the procedure: Before commencement of this study, the xenografts were passaged twice in nude mice. Under sterile conditions, well-grown tumors were cut into 1.5 mm^3 fragments and one such fragment was injected by trocar needle into the right flank of each study animal. […] Individual tumor size (length and width) was measured twice per week with microcalipers. Tumor volume (V) was calculated using the formula: V=(length×width^2)/2. Individual relative tumor volume (RTV) was calculated using the formula: RTV=Vt/V0, where Vt is the tumor volume on the day of measurement and V0 is the tumor volume on the day of first treatment. Therapeutic effect of the test article or control article was expressed in terms of TIC (%), using the formula: TIC (%) (mean RTV of the treated group/mean RTV of the control group)×100%; and in terms of % Inhibition, using the formula: % Inhibition=100%−T/C %.
The 1.5 mm^3 fragments were then used for s.c. implantation into the test animals.
In general terms: Xenograft models place foreign cells or tissue in a host animal.

In a further data set the test system is A549 cells. In words: Cell viability, Am-Blue assay, 48 hr. To be noted: 100 μg/ml. The class given is cell-based, human. On the procedure: (§1) Cell culture and reagents human lung cancer cell lines (A549, H1299, H460, Calu-1), human liver cancer cell lines (SMMC-7721, Huh-7, CL-1), human cervical carcinoma cell line (Hela), human breast cancer cell line (MDA-MB-231), human pancreatic cancer cell line (PANC-1) and human colon cancer cell lines (SW620, HT29, SW480) were purchased from the Shanghai Cell Collection (Shanghai, China). The above cell lines were cultured in 5% CO2 at 37° C. in corresponding complete growth medium formulated by the Shanghai Cell Collection, with 10% heat-inactivated fetal bovine serum (Biochrom, Germany), supplemented with 4 mM glutamine, 50 U/ml penicillin and […] streptomycin.
(§2) About 5×10^3 cells in 100 μl complete medium per well were plated in 96-well plates, incubated overnight, and then treated with IFN α-2b or rSIFN-co at concentrations of 100 μg/ml, 50 μg/ml, 25 μg/ml, 12.5 μg/ml, 6.25 μg/ml, 3.13 μg/ml, 1.56 μg/ml, 0.78 μg/ml, 0.39 μg/ml, and 0.20 μg/ml, respectively, for about 48 hr, at which time the cells were harvested for analysis. The cell viability rate was evaluated by SunBio Am-Blue assay kit (Cat #: SBAB8025, Shanghai SBO Medical Biotechnology Co., Ltd, Shanghai, China). According to its protocol, 10 μl Am-Blue was added to each well. Then the cells were incubated in 5% CO2 at 37° C. for 4 hours. After shaking the plates for 30 seconds, the absorbance for each well was read at both 570 nm and 595 nm by a Thermo Scientific Microplate Reader (Thermon Fisher Scientific, Inc., Lowell, Mass.), The relative cell viability was calculated as follows: Cell viability=(Treated Group(OD570-OD595) minus Blank(OD570-OD595))/(Control group(OD570-OD595) minus Blank(OD570-OD595))×100%, where the Control group was the corresponding untreated cells. Results are shown in FIG. 5, in which viability of the tumor cells was expressed as a percentage relative to control cells that were not treated. Each data point represented the mean of at least two independent experiments.

The test system of the next data set is CL-1 cells. Briefly: Cell viability, Am-Blue assay, 48 hr. The class given is cell-based, human. The note with it: 100 μg/ml. On the procedure: as §1, §2
For a further data set, the system named is Calu-1 cells. In words: Cell viability, Am-Blue assay, 48 hr. The note with it: 100 mcg/ml (μg/ml). The class given is cell-based, human. On the procedure: as §1, §2
For another data set, the system named is Hela cells. Briefly: Cell viability, Am-Blue assay, 48 hr. The class given is cell-based, human. The note with it: 100 μg/ml. On the procedure:
as §1, §2

Another data set relates to Huh-7 cells. Briefly: Cell viability, Am-Blue assay, 48 hr. The format is cell-based, human. The note with it: 100 mcg/ml (μg/ml). On the procedure:
as §1, §2

For another data set, the system named is MDA-MB-231 cells. In words: Cell viability, Am-Blue assay, 48 hr. The class given is cell-based, human. To be noted: 100 mcg/ml (μg/ml). On the procedure:
as §1, §2

A further data set deals with PANC-1 cells. In words: Cell viability, Am-Blue assay, 48 hr. The format is cell-based, human. The note with it: 100 mcg/ml (μg/ml). On the procedure:
as §1, §2

The next data set has as its system SMMC-7721 cells. In words: Cell viability, Am-Blue assay, 48 hr. The format is cell-based, human. The note with it: 100 μg/ml. On the procedure:
as §1, §2

A further data set deals with SW480 cells. In words: Cell viability, Am-Blue assay, 48 hr. The class given is cell-based, human. To be noted: 100 μg/ml. On the procedure: as §1, §2
The test system of data set [2] is A549 cells xenograft tumors. In words: A549 xenograft tumor growth in nude mice (Example 6B). The format is in vivo, human. The note with it: 100 μg/100 μl per mouse intratumorally every other day, 12 times; vs PBS; 27 days. On the procedure:
This experiment was conducted in accordance to the National Institutes of Health Guide for the Care and Use of Laboratory Animals. Female BALB/c nude mice, 4-5 weeks old, were obtained from Shanghai Experimental Animal Center (Shanghai, China). About 5×10^6 A549 cells were subcutaneously injected into each mouse to establish xenograft tumors. The animals were divided into three (3) groups at random (8 mice per group), and treated with PBS (1×PBS, pH 7.2-7.4), rSIFN-co at 100 μg/100 μl per mouse or with IFNα-2b, also at 100 μg/100 μl per mouse, intratumorally, every other day, for 12 times. The tumors were measured every three (3) days and the tumor volumes were calculated as follows: tumor volume (mm^3)=(length×width^2)/2. Data are shown as Mean±SD (n=8).

A further data set deals with Lung cancer cells, A549. In words: Colony formation and pseudopod formation in 3D Matrigel culture. The class given is cell-based, human. To be noted: 10 mcg/ml, after 8 days. On the procedure:
Matrigel (from BD Corporation, Cat #: 356234) was thawed on ice in a 4° C. refrigerator overnight, and a 24-well plate was frozen at −20° C. overnight. Thereafter, each well of the frozen 24-well plate was coated with 150 μl of the Matrigel at 1.0 mcg/ml. The Matrigel coated plate was then incubated 37° C. for 20-30 min. Lung cancer cells, A549, were trypsinized and counted. […] The cells were incubated at 37° C. for at least about 8 days. About 200 μl of the above conditioned medium was added every 3 days to prevent the medium from drying. On the 4th or 8th day, photographs were taken to observe the size of the colonies and invasive feet (pseudopod) formation. The experiment was conducted in triplicate.

[3] abbreviates: 0.15 mg/mouse i.t. every other day, day 21.

For the substance “IFN alpha-2b: Interferon alpha-2b comparator, from Shanghai Hua-xin High Biotechnology / Huiyang Life Science and Technology Corp.”, the “TV (mm^3, mean ± SD) (D0)” value in [1] (0.15 mg/mouse i.t. every other day, day 0, start of treatment) is reported as 191 ± 44 mm^3. The “% Inhibition” value in data set [1] (setting [3]) was 34.53%. In [1] (setting [3]), the “RTV (mean ± SD)” value is recorded as 27.84 ± 15.51. The “T/C (%)” value in data set [1] (setting [3]) was 65.47%. Moreover, the “TV (mm^3, mean ± SD) (D21)” value in data set [1] (setting [3]) was determined as 4908 ± 2433 mm^3. Further, the “retardation of tumor growth (RTV) seen by” value in [1] (all doses, study to day 21, FIG. 4) came to 11 days. Besides, the reduction in viability result with A549 cells is listed as “no or very little effect”; in the data set on CL-1 cells, “no or very little effect”; in the data set on Calu-1 cells, “Less than 50%”; with Hela cells it was “no or very little effect”; in the data set on Huh-7 cells it was “Less than 50%”; with MDA-MB-231 cells it was “Less than 50%”. For the same substance, the reduction in viability entry in the data set on PANC-1 cells is on record as “Less than 50%”; in the data set with SMMC-7721 cells it was “no or very little effect”; with SW480 cells, “no or very little effect”. For the same substance, the “inhibition of tumor growth (tumor volume)” value in [2] is “did not exhibit remarkable suppression of tumor growth”. The “invasive feet (pseudopod) formation” value with Lung cancer cells, A549 was “pseudopod formation was obvious”.

As usually defined, the % Inhibition is the share of the control response that was lost under treatment. A high value points to a response far below the control.

Source of the values: patent US10677782B2, “Methods of determining interferon having direct inhibitory effects on tumors and uses thereof” (SUPERLAB FAR EAST LIMITED, priority 2013, dated 2020).
